The other results are listed elsewhere or left out. Records with an inconclusive call do not appear. Active and inactive are the calls of the source. Rule for the calls: active = hit-call score of the fitted dose curve at least 0.9, where 1 is the maximum; inactive = score below 0.9.
Experiment: ATG_M_61_TRANS: Attagene TRANS-FACTORIAL HepG2 Assay for M61 Transcription Factor (Internal Marker) (AID 2282988)
Details: HepG2 Attagene TRANS M61 internal marker reporter
Description: ATG_TRANS is a cell-based, multiplexed-readout assay that uses HepG2, a human liver cell line, with measurements taken at 24 hours after chemical dosing in a 24-well plate.ATG_M_61_TRANS is one of 30 assay component(s) measured or calculated from the ATG_TRANS assay. It is designed to make measurements of mRNA induction, a form of inducible reporter, as detected with fluorescence intensity signals by Reverse transcription polymerase chain reaction (RT-PCR) and Capillary electrophoresis technology.Data from the assay component ATG_M_61_TRANS was analyzed into 1 assay endpoint. This assay endpoint, ATG_M_61_TRANS, was analyzed in the positive analysis fitting direction relative to DMSO as the negative control and baseline of activity. Using a type of inducible reporter, measures of mRNA for gain-of-signal activity can be used to understand the background control at the transcription factor-level as they relate to the gene . Furthermore, this assay endpoint can be referred to as a secondary readout, because this assay has produced multiple assay endpoints where this one serves a background control function. To generalize the intended target to other relatable targets, this assay endpoint is annotated to the background measurement intended target family, where the subfamily is internal marker.
Human liver HepG2 cells are transiently transfected with multiple reporter transcription units (MRTUs) in 6-well plates using FuGene 6 reagent (Roche; 3 ml FuGene/1 mg DNA). The MRTU constructs are regulated by a cis-regulating element (promoter). […] A major difference between the CIS and TRANS system is that in CIS activities of endogenous TFs are measured, whereas the TRANS assay evaluates changes in activities of exogenous, chimeric NR-Gal4 proteins. […] At the end of 24 hour incubation, total RNA was isolated using TriZol reagent (Invitrogen). The isolated RNA is then reverse-transcribed using oligo(dT) primer and Mo-MLV reverse transcriptase (Invitrogen) with DNAse I (Ambion) treatment for 30 min. The one-tenth of the produced cDNA was amplified by PCR using Taq DNA polymerase (Invitrogen) and two reporter sequence-specific primers. The PCR products were fluorescently labeled by primer extension with 6-arboxyfluorescein (6-FAM) 5'-labeled reporter sequence-specific primer (2 min at 95 C, 20 s at 68 C and 10 min at 72 C) and these products were digested with 5U of HpaI (New England Biolabs) for 2h at 37 C. The fragments were purified using Qiaquick PCR columns (Qiagen), analyzed on an ABI 3130xL genetic analyzer (Applied Biosystems) with peak positions identified by using a set of X-rhodamine (ROX)-labeled MapMarker1000 molecular weight standards (BioVentures). The raw capillary electrophoresis data was processed using Attagraph software (Attagene).

Structure (SMILES)	outcome
Cc1ccc([N+](=O)[O-])cc1[N+](=O)[O-]	inactive
Cc1c([N+](=O)[O-])cccc1[N+](=O)[O-]	inactive
N#CBr	inactive
Cc1ccc([N+](=O)[O-])c([N+](=O)[O-])c1	inactive
Cc1cccc([N+](=O)[O-])c1[N+](=O)[O-]	inactive
CC(C)N(CCO)C(C)C	inactive
COP(C)(=O)OC	inactive

— PubChem BioAssay (EPA / NIEHS)
